{
  "source": "patent US10695279B2",
  "about": "“Peptide having skin-whitening activity and use thereof” (CAREGEN CO., LTD., priority 2017, dated 2020)",
  "system": "melanin-forming cells (B16F10 cell line)",
  "settings": "B16F10, 1 uM to 200 uM, 72 hours, MTT, FIG. 1",
  "data": [
    {"substance": "Feruloyl-Ile-Trp-Ser-Leu-Asp-Thr-Gln-Tyr-Gly-Gly-Arg-Gly-Asp-COOH", "values": [
      {"measurement": "cytotoxicity", "result": "no cytotoxicity was observed"}
    ]}
  ]
}
